By UniProt entry, the sequences of proteins in these tests, tags left out.
UniProt P35790, whole entry: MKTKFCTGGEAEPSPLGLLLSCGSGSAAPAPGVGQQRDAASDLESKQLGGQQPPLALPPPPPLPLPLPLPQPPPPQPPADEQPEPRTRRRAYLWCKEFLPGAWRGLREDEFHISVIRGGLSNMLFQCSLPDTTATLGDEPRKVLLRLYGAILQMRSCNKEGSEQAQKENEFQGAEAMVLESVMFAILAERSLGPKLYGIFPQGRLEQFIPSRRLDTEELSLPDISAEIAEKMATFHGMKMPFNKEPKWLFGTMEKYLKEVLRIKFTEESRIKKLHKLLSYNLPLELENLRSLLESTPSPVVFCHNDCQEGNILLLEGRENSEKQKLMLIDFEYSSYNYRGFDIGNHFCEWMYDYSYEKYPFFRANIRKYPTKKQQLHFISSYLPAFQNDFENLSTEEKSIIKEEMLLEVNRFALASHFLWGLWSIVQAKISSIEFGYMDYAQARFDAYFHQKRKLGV

In ChEMBL document CHEMBL1144422, “Symmetrical bis-quinolinium compounds: new human choline kinase inhibitors with antiproliferative activity against the HT-29 cell line” (J Med Chem, 2005):

Target: Choline kinase alpha (Homo sapiens, UniProt P35790)
Assay: Ex vivo inhibitory concentration against human choline kinase

- IC50: 2100 nM
Structure (SMILES): CN(c1ccc(Cl)cc1)c1cc[n+](Cc2cccc(-c3cccc(C[n+]4ccc(N(C)c5ccc(Cl)cc5)c5ccccc54)c3)c2)c2ccccc12
